According to patent US20250213516A1, “Prophylactic Methods For Treating ALS” (BioJiva LLC, priority 2022, published 2025):

Test: Concentration of 13,13-D2-arachidonic acid in red blood cells of treated ALS patients
Conditions: daily dosage of about 8.64 grams over about 4 to about 10 weeks

- steady state concentration of 13,13-D2-arachidonic acid in red blood cells: about 20%
Structure (SMILES): [2H]C([2H])(/C=C\CCCCC)/C=C\CCCCCCCC(=O)O [11,11-D2-linoleic acid]
